## Apparent affinities of Ab-95 variants for a coronavirus HR2 peptide

Data: MIT Lincoln Laboratory AlphaSeq set, Engelhart et al. 2022, doi:10.1038/s41597-022-01779-4, as distributed in FLAb.

Target: peptide PDVDLGDISGINAS, taken from heptad repeat 2 (HR2) of SARS-CoV-2 spike.

Each scFv is VH, three GGGGS repeats, VL, as in the parent Ab-95, and differs from it in the CDRs of the light chain only.
VH: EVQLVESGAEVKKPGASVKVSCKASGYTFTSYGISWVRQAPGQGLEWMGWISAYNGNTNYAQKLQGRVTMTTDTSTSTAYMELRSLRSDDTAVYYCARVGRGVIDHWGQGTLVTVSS
VL: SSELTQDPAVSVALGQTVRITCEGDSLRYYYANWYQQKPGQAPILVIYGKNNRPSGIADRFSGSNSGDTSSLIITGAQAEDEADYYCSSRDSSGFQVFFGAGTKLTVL

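The parent was found by panning a naive human phage display library on the peptide. Library AAYL52 holds single substitutions and randomly drawn double and triple substitutions in the CDRs. The scFvs were displayed on barcoded MATa yeast, the peptide on MATalpha yeast. Binding brings cells together so that they mate, and sequencing counts the barcode pairs among the diploids. Read counts were normalised to the haploid input and turned into Kd by a linear fit to BCL2-family pairs of known affinity, for each replicate. The assay was run in three technical replicates.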

Each variant's VL is given in full. Values are apparent Kd, the geometric mean of the replicates that gave a signal; lower means stronger binding. A pair that was not seen in any replicate is written "not detected"; this usually means weak binding, but a binder can also be missed.

Kd | replicates with signal | empty controls | VL
3.2 µM | 1 of 3 | 1 of 9 | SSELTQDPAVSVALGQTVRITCEGDSLRYYYASWYQQKPGQAPILVIYGKNNRPSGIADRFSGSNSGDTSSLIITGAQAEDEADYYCSSKDSSGRQVFFGAGTKLTVL
8.6 µM | 2 of 3 | 3 of 9 | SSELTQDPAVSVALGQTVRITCEGHSLRYYYWNWYQQKPGQAPILVIYGKNNRPSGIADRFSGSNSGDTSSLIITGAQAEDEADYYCSSRDSSGMQVFFGAGTKLTVL
8.0 µM | 2 of 3 | 2 of 9 | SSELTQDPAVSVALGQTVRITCEGDSLRYYYGNWYQQKPGQAPILVIYGKNNRPSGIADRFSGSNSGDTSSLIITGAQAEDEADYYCSVRMSSGFQVFFGAGTKLTVL
1.5 µM | 3 of 3 | 0 of 9 | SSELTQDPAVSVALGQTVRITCEGDSLRYSYANWYQQKPGQAPILVIYRKNNRPSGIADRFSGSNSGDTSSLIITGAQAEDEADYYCSSRDSSGFQVFFGAGTKLTVL
2.4 µM | 1 of 3 | 0 of 9 | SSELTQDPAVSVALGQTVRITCEGDSIRYYYWNWYQQKPGQAPILVIYGKNNQPSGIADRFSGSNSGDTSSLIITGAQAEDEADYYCSSRDSSGFQVFFGAGTKLTVL
27 µM | 3 of 3 | 1 of 9 | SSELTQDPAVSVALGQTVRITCEGDSLRYYYANWYQQKPGQAPILVIYGKNPRPSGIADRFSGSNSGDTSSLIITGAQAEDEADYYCSSVDSSGCQVFFGAGTKLTVL
71 nM | 3 of 3 | 4 of 9 | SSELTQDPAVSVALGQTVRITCEGDSLRYVYANWYQQKPGQAPILVIYGKNNRASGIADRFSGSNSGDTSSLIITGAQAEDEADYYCSSRDSSYFQVFFGAGTKLTVL
510 nM | 3 of 3 | 2 of 9 | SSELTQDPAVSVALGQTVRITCEGDSLFYYYANWYQQKPGQAPILVIYGKNNRPSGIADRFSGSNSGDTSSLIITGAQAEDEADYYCSSRDSSYFQSFFGAGTKLTVL
440 nM | 3 of 3 | 3 of 9 | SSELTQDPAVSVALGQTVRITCEGDSLRYYHANWYQQKPGQAPILVIYGKNNRQSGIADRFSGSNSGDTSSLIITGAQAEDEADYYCSSGDSSGFQVFFGAGTKLTVL
600 nM | 1 of 3 | 1 of 9 | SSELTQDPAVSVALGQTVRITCEDDSLRPYYANWYQQKPGQAPILVIYGKNNRPSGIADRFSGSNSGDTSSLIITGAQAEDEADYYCSSRDVSGFQVFFGAGTKLTVL
not detected | 0 of 3 | 2 of 9 | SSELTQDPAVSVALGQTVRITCEGDSQRYYYANWYQQKPGQAPILVIYRKNNRYSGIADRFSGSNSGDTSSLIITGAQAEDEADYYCSSRDSSGFQVFFGAGTKLTVL
6.1 µM | 1 of 3 | 1 of 9 | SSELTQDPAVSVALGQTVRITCEGDSLRYYYANWYQQKPGQAPILVIYGKNMWPSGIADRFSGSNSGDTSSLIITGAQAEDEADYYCPSRDSSGFQVFFGAGTKLTVL
1.4 µM | 3 of 3 | 5 of 9 | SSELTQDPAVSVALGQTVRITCEGDSLRYYYANWYQQKPGQAPILVIYGKNNRPSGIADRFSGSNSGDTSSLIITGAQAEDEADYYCSSRDSQGFQVYFGAGTKLTVL
1.5 µM | 3 of 3 | 3 of 9 | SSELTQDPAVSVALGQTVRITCELDSEQYYYANWYQQKPGQAPILVIYGKNNRPSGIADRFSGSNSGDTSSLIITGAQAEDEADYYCSSRDSSGFQVFFGAGTKLTVL
11 µM | 1 of 3 | 2 of 9 | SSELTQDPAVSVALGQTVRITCEGDSLRYYYANWYQQKPGQAPILVIYGKANHNSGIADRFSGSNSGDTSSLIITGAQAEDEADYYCSSRDSSGFQVFFGAGTKLTVL
not detected | 0 of 3 | 1 of 9 | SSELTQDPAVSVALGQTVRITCEGNSLRYYYALWYQQKPGQAPILVIYGKNNRPSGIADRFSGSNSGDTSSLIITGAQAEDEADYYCSSKDSSGFQVFFGAGTKLTVL
700 nM | 1 of 3 | 4 of 9 | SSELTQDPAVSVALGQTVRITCEGDSLRYYYANWYQQKPGQAPILVIYGKNNPPSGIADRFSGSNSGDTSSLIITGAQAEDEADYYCSSRDSSGSGVFFGAGTKLTVL
1.6 µM | 3 of 3 | 2 of 9 | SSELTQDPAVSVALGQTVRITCEGDSLNYYYANWYQQKPGQAPILVIYGKNKRPSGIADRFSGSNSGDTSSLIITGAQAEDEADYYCSSRDTSGFQVFFGAGTKLTVL
180 nM | 3 of 3 | 1 of 9 | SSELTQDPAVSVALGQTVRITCEGASLRYYYANWYQQKPGQAPILVIYGKNNHPSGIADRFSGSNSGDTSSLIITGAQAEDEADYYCSSRDSSGFQVFFGAGTKLTVL
18 µM | 1 of 3 | 1 of 9 | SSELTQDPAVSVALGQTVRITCEGDSLRFYYANWYQQKPGQAPILVIYGKNCRPSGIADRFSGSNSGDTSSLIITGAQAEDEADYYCSSRDSSGFQVFFGAGTKLTVL
4.4 µM | 1 of 3 | 2 of 9 | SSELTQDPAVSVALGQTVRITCEGDSLSYYYANWYQQKPGQAPILVIYKKNNRWSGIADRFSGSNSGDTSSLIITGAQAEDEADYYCSSRDSSGFQVFFGAGTKLTVL
81 µM | 1 of 3 | 1 of 9 | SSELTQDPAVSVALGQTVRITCEGDSLRYYYGNWYQQKPGQAPILVIYDKYNRPSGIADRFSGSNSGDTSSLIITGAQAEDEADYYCSSRDSSGFQVFFGAGTKLTVL
780 nM | 3 of 3 | 7 of 9 | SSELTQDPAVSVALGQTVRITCEGDSLRYYYANWYQQKPGQAPILVIYGKNETPSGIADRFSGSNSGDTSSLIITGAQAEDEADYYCSSRDMSGFQVFFGAGTKLTVL
not detected | 0 of 3 | 0 of 9 | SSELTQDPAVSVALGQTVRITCEGDSLRYYYANWYQQKPGQAPILVIYGKNNRPSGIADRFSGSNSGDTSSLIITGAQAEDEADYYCSSRRSSGFQNFFGAGTKLTVL
7.3 µM | 1 of 3 | 0 of 9 | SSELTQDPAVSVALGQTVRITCEGDSQRYYYAKWYQQKPGQAPILVIYQKNNRPSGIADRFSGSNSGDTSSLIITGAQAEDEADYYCSSRDSSGFQVFFGAGTKLTVL
12 µM | 3 of 3 | 4 of 9 | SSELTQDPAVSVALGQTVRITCEGDSLRRYYANWYQQKPGQAPILVIYGKNNSPSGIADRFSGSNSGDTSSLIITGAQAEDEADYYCSSRDSSGFQLFFGAGTKLTVL

A selection of 2 entries from above:

VL	Kd	replicates with signal	empty controls
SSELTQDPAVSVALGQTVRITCEGNSLRYYYALWYQQKPGQAPILVIYGKNNRPSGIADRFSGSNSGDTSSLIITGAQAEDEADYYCSSKDSSGFQVFFGAGTKLTVL	not detected	0 of 3	1 of 9
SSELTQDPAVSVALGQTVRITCELDSEQYYYANWYQQKPGQAPILVIYGKNNRPSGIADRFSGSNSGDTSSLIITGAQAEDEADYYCSSRDSSGFQVFFGAGTKLTVL	1.5 µM	3 of 3	3 of 9

In this assay the parent's reference entry averaged 200 nM; its copy inside this library read 180 nM. As a blank, each scFv also met three strains without target: over library AAYL52, 28% of these pairings were detected, typically at 8.2 µM and seldom below 800 nM. For each scFv, signals with the empty controls are counted beside the result.